Laboratory results: US20040248111A1

The compounds below were run against human thrombin (Homo sapiens, UniProt P00734) (assay: thrombin competition assay (determination of the inhibitor constant Ki)). Details: 20° C., pH 7.4, fluorogenic substrate Tos-GPR-AMC 20 μM, free ligand in solution.
Procedure: The inhibitory properties of these substances were then analysed in a thrombin competition assay (determination of the inhibitor constant Ki).
The thrombin activity was determined at 20° C. and pH 7.4 using the fluorogenic substrate Tos-GPR-AMC (Bachem, 11365, λexc. =370 nm, λem. =450 nm). The reaction mixture contains 20 μM substrate, 0.1-100 μM inhibitor and 100 μM human thrombin in a total volume of 200 μl HBS (10 mM Hepes, 150 mM NaCl, 0.005% Tween 20). After 5 minutes of incubating the enzyme in advance with the inhibitor, the reaction is started by adding substrate and the fluorescence intensity is measured for 10 minutes in intervals of 1 minute. With competitive inhibition, the K value is calculated as follows:
v0=initial speed of the reaction
vi=initial speed of the reaction in the presence of the inhibitor
l=inhibitor concentration

Structure (SMILES)	Ki
N=C(N)Nc1ccc(C[C@H](NS(=O)(=O)c2cccc3ccccc23)C(=O)N2CCCCC2)cc1	1000 nM
CC(C)(C)c1ccc(S(=O)(=O)N[C@@H](Cc2ccc(NC(=N)N)cc2)C(=O)N2CCCCC2)cc1	600 nM
CCN(CC)C(=O)C1CCCN(C(=O)[C@H](Cc2ccc(NC(=N)N)cc2)NS(=O)(=O)c2cccc3ccccc23)C1 (stereo partly drawn)	6000 nM
